According to patent publication US20240043615A1, “AMINO ACID POLYMER-PLATINUM ANTICANCER DRUG CONJUGATES” (priority 2020, published 2024):
Where two headings read alike, the source gives them in different places.

Tests used:
[1] = tested on: human non-small cell lung cancer A549 cells; conditions: 20 μg (Pt)/mL, 30-60 min
[2] = tested on: normal human bronchial epithelial HBEC3-KT cells; conditions: 20 μg (Pt)/mL, 30-60 min
CT26 tumor = conditions: CT26-tumor bearing mice; for Pt concentration in tumors versus time: i.v.
[3] = Body weight change in mice; conditions: tumor-bearing mice; high dose P(G-A)-Asp-Pt is 3-fold higher than the oxaliplatin dose
[4] = Spleen toxicity evaluation in mice; conditions: mice after treatment
[5] = Plasma pharmacokinetics in tumor-free mice (Pt by ICP-OES); conditions: 4 mg (Pt)/kg Pt-equivalent dosage

For “Poly L-Glutamic and poly L-Aspartic acid (Glu:Asp = 7:3)-L-Aspartic-Platinum [P(G-A)-Asp-Pt]”, the “cytotoxicity in A549 cells” value [1] was “selectively kills A549 cancer cells”, the “cytotoxicity in HBEC3-KT cells” value [2] was “little effect on normal HBEC3-KT cells” and the “Pt concentration in tumors versus time” value (CT26 tumor; 12 mg (Pt)/kg) was “dramatic tumor accumulation with increased concentration”. The “Pt concentration in tumors versus time” value (CT26 tumor; same dosage of oxaliplatin and P(G-A)-Asp-Pt) was “significantly higher”, the “Pt concentration in tumor relative to cell culture IC50” value (CT26 tumor; versus IC50 at 24 or 48 h) was “well above those in cell culture IC50 at 24 or 48 h” and the “body weight during the efficacy study” value [3] was “stable bodyweight”. The “spleen appearance and weight” value [4] was “minimal changes in spleen”, the “Pt concentration in plasma versus time (circulation time)” value [5] was “significantly prolonged circulation time” and the “plasma AUC” value ([5]; versus oxaliplatin) was “higher AUC”.
